According to patent US6331565A, “Dicaffeoylquinic acid for treating hepatitis B and the diseases associated with retrovirus, and the new caffeoylquinic acid derivatives” (Institute of Radiation Medicine Academy of Military Medical …, priority 1996, dated 2001):
Where two headings read alike, the source gives them in different places.

How the values were obtained:
[1] = tested on: DHBV; assay: anti-DHBV test in ducks (serum DHBV DNA dot blot); type: in vivo, DHBV in Peking (Beijing) ducks; conditions: for DHBV DNA, grayness of the dot: X ± SD, n = 7; for viraemia / DHBV DNA, dose and time dependence (words): 5, 12.5, 50 mg/kg/day
Procedure: One-day-old ducklings were infected with a 200 μl intravenous injection of DHBV-positive serum containing 10^11 viral genome equivalents per milliliter. Treatment began when ducklings were 7 days old. A total 89 seven-day-old viraemic ducks were distributed at random into five groups. Three groups were administered for 14 days with compound A at the dosage of 5, 12.5, and 50 mg.kg of body weight^-1.day^-1, given orally in two equal (morning and evening) dose dissolved in normal saline (NS). Other two groups were treated with NS and Acyelorvir (ACV) at the dosage of 50 mg.kg of body weight^-1.day^-1 instead of compound A respectively. Post-treatment follow-up was carried over a period of 5 days. Blood samples were obtained repectively from the leg vein of all ducks and stored at -70° C. after serum separation, prior to treatment, weekly during the treatment, and for 5 days after cessation of treatment. They were screened for presence of DHBV DNA by dot blot hybridization.
DHBV DNA in serum was analyzed by molecular hybridization using full length DHBV DNA clones in PB325. The DHBV DNA insert was purified by agarose gel electrophoresis after digestion with EcoRI. The DHBV DNA was radiolabeled with α^32 P-dCTP random oligopriming with Klenow fragment. Dot blot hybridization was carried out by the method of Scotto et al. Briefly, an aliquot (200 μl) serum was spotted onto a nylon membrane (Hybond-N, Amersham International, England) in dot blot manifold and denatured with 0.5 M NaOH--NaCl at room temperature for 30 min. Each spotted sample was neutralized in 1M Tris.HCl-1.5M NaCl (pH8.0). The DNA on the membrane was fixed by heating at 80° C. for 2 h, and prehybridization at 37° C. overnight in 50% formamide, 5×Denhardt's, 6×SSC,[…], 0.5% SDS and 10 mg/ml of calf thymus DNA. Hybridization was initiated by adding DHBV [^32 P] DNA probes at 10^6 cpm/ml at the same prehybridization conditions overnight. The membrane was washed in 3×SSC-0.1% SDS at room temperature, 42° C. and 65° C. for 10 min respectively. After hybridization the membranes were air-dried and exposed for periods of up to 14 days at -70° C. with Kodak film with an enhancer screen. The amount of viral DNA were assayed by both densitometry and image analysis of autoradiographic membranes.

[2] = tested on: HIV-1
Procedure: (§1) A human T-cell leukemia cell line. MT4 cells, was used in this study. It was maintained in RPMI-1640 medium supplemented with 10% FCS. 100 U/ml of penicillin, and 100 μg/ml of streptomycin at 37° C. in a humidified atmosphere of 5% CO2. Cell cultures were split into fresh medium every 4 days.
(§2) HIV-1 virus was propagated in MT4 cells. The cell-free supernatants of HIV-1 infected MT4 cell culture were used as virus stocks and frozen at -80° C. until used. The 50% tissue culture infected dose (TCID50) of the cell-free virus stock was determined by end-point titration with MT4 cells in 96-well microdilution plates.
MT4 cells in culture were counted by trypan blue exclusion method. The MT4 cells suspended in a small volume of RPMI-1640 medium without FCS and infected with HIV-1 at 200 TCID50 viruses per 10^6 cells. The mixture of MT4 cells and virus was subsequently incubated at 37° C. in a humidified atmosphere of 5% CO2 for 1 hr to allow virus to adsorbed to cells. Unabsorbed viruses were then removed by washing one with […] of the fresh medium and centrifuged at 1000 rpm for ten minutes. The cells were suspended in the medium and distributed into 12-well microculture plates (10^6 cells/3 ml/well). […]
(§3) After 7-day incubation the viable cells was evaluated by MTT method as described above.

[3] = tested on: lymphocyte proliferation induced by Con A; conditions: for RPI: Normal = 100
Procedure: mice. Five-wk-old female C57BL/6 mice were used throughout the experiments. All mice were housed in sterile cages in a room supplied with filtrated air. They were given pelleted food and chlorinated water ad libitum.
Infection with LP-BM5 MuLV. Cell-free supernatants of LP-BM5 MULV were prepared by cocultivating G6 SC-1 clones with normal SC-1 cells for 5 days. Mice were inoculated intraperitoneally with 150 μl of stock solution containing 10^3,4×C plaque-forming units and 10^2,3 Mink-cell focks-forming units per […].
Then, the spleens were collected. Cell suspensions were prepared by repeated passage of whole spleen through a pipette, the capsule and debris were allowed to settle, and the supernatants containing cells were collected and washed twice in PBS. […] Incubation continued for 16 hr, then cells were collected on filter that was determined by a scintillation counter.

[4] = tested on: HIV-1; conditions: 7 days
Procedure: as §1, §2
After 4 h, 100 μl of solvent (10% Triton X-100 and 0.4% HCl isopropanol)was added to cultures to solubilizes formazan. After an overnight incubation, the absorbency of each well was measured using a microplate reader (Bio-Rad, model 450) at 560 nm.
MT4 cells in culture were counted by trypan blue exclusion method. The MT4 cells suspended in a small volume of RPMI-1640 medium without FCS and infected with HIV-1 at 200 TCID50 viruses per 10^6 cells. The mixture of MT4 cells and virus was subsequently incubated at 37° C. in a humidified atmosphere of 5% CO2 for 1 hr to allow virus to adsorbed to cells. Unabsorbed viruses were then removed by washing one with […] of the fresh medium and centrifuged at 1000 rpm for ten minutes. The cells were suspended in the medium and distributed into 12-well microculture plates (10^6 cells/3 ml/well). […] After 4-day incubation at 37° C. in a humidified atmosphere containing 5% CO2 the medium was aspirated and the fresh medium containing the same concentration of drug was added.
as §3

**Q.** For `O=C(/C=C/c1ccc(O)c(O)c1)OC1CC(OC(=O)/C=C/c2ccc(O)c(O)c2)(C(=O)O)CC(O)C1O` (stereo not drawn) [Compound A, 1,5-di-O-caffeoylquinic acid], which “DHBV DNA, grayness of the dot” value ([1]; 5 mg/kg, day 0 (before treatment), oral) is on record?
**A.** 3.4 ± 1.2 K Grayness

**Q.** What about the “DHBV DNA, grayness of the dot” value ([1]; 5 mg/kg, day 7, oral) of the same compound?
**A.** 2.7 ± 0.9 K Grayness

**Q.** What about the “DHBV DNA, grayness of the dot” value ([1]; 5 mg/kg, day 14, oral) of the same compound?
**A.** 1.3 ± 1.3 K Grayness

**Q.** And the “DHBV DNA, grayness of the dot” value ([1]; 12.5 mg/kg, P5 (day 5 after withdrawal))?
**A.** 1.9 ± 1.4 K Grayness

**Q.** What about the “DHBV DNA, grayness of the dot” value ([1]; 12.5 mg/kg, day 0 (before treatment), oral) of the same compound?
**A.** 2.6 ± 1.9 K Grayness

**Q.** And the “DHBV DNA, grayness of the dot” value ([1]; 12.5 mg/kg, day 7, oral)?
**A.** 1.3 ± 1.3 K Grayness

**Q.** And the “DHBV DNA, grayness of the dot” value ([1]; 12.5 mg/kg, day 14, oral)?
**A.** 0.6 ± 1.1 K Grayness

**Q.** What about the “DHBV DNA, grayness of the dot” value ([1]; 50 mg/kg, P5 (day 5 after withdrawal)) of the same compound?
**A.** 0.5 K Grayness

**Q.** And the “DHBV DNA, grayness of the dot” value ([1]; 50 mg/kg, day 0 (before treatment), oral)?
**A.** 4.0 K Grayness

**Q.** And the “DHBV DNA, grayness of the dot” value ([1]; 50 mg/kg, day 7, oral)?
**A.** 1.3 K Grayness

**Q.** And the “DHBV DNA, grayness of the dot” value ([1]; 50 mg/kg, day 14, oral)?
**A.** 0.5 K Grayness

**Q.** What about the “viraemia after withdrawal” value ([1]; 50 mg/kg/day, 4 days after withdrawal, vs NS and ACV) of the same compound?
**A.** significantly lower than those after NS and ACV

**Q.** What about the “DHBV DNA after withdrawal” value ([1]; 50 mg/kg/day, 5 days after withdrawal, vs NS and ACV) of the same compound?
**A.** significantly lower than those after NS and ACV

**Q.** And the “viraemia / DHBV DNA, dose and time dependence (words)” value [1]?
**A.** dose- and time-dependent inhibitory effect

**Q.** And the “viraemia / DHBV DNA, dose and time dependence (words)” value ([1]; listed as compound A)?
**A.** decreased in dose- and time-dependently manner

**Q.** And the “appearance of syncytia, conclusion” value [2]?
**A.** restrain the appearance of syncytia

**Q.** What about the “syncytia” value ([2]; dosage over 25 μg/ml, 4 days) of the same compound?
**A.** no syncytia were observed

**Q.** And the cpm ([3]; 25 mg/kg, Con A (2.5 μg/ml))?
**A.** 28627 ± 3206 cpm

**Q.** What about the RPI ([3]; 25 mg/kg, Con A (2.5 μg/ml)) of the same compound?
**A.** 80.34

**Q.** What about the cpm ([3]; 25 mg/kg, Con A (5 μg/ml)) of the same compound?
**A.** 49308 ± 2967 cpm

**Q.** What about the RPI ([3]; 25 mg/kg, Con A (5 μg/ml)) of the same compound?
**A.** 88.00

**Q.** What about the cpm ([3]; 50 mg/kg, Con A (2.5 μg/ml)) of the same compound?
**A.** 31579 ± 3312 cpm

**Q.** What about the RPI ([3]; 50 mg/kg, Con A (2.5 μg/ml)) of the same compound?
**A.** 88.63

**Q.** And the cpm ([3]; 50 mg/kg, Con A (5 μg/ml))?
**A.** 51098 ± 3270 cpm

**Q.** What about the RPI ([3]; 50 mg/kg, Con A (5 μg/ml)) of the same compound?
**A.** 91.19

**Q.** And the O.D. ([4]; 1.56 μg/ml, 1000 TCID50 (first column pair))?
**A.** 0.33 ± 0.04 O.D.

**Q.** And the O.D. ([4]; 1.56 μg/ml, 1000 TCID50 (second column pair))?
**A.** 0.41 ± 0.04 O.D.

**Q.** What about the O.D. ([4]; 3.12 μg/ml, 1000 TCID50 (first column pair)) of the same compound?
**A.** 0.43 ± 0.03 O.D.

**Q.** And the O.D. ([4]; 3.12 μg/ml, 1000 TCID50 (second column pair))?
**A.** 0.49 ± 0.06 O.D.

**Q.** And the O.D. ([4]; 6.25 μg/ml, 1000 TCID50 (first column pair))?
**A.** 0.57 ± 0.06 O.D.

**Q.** What about the O.D. ([4]; 6.25 μg/ml, 1000 TCID50 (second column pair)) of the same compound?
**A.** 0.68 ± 0.03 O.D.

**Q.** What about the O.D. ([4]; 12.5 μg/ml, 1000 TCID50 (first column pair)) of the same compound?
**A.** 0.67 ± 0.05 O.D.

**Q.** What about the O.D. ([4]; 12.5 μg/ml, 1000 TCID50 (second column pair)) of the same compound?
**A.** 0.77 ± 0.06 O.D.

**Q.** What about the O.D. ([4]; 25 μg/ml, 1000 TCID50 (first column pair)) of the same compound?
**A.** 0.78 ± 0.03 O.D.

**Q.** And the O.D. ([4]; 25 μg/ml, 1000 TCID50 (second column pair))?
**A.** 0.83 ± 0.02 O.D.

**Q.** What about the O.D. ([4]; 50 μg/ml, 1000 TCID50 (first column pair)) of the same compound?
**A.** 0.82 ± 0.05 O.D.

**Q.** And the O.D. ([4]; 50 μg/ml, 1000 TCID50 (second column pair))?
**A.** 0.80 ± 0.02 O.D.

**Q.** And the O.D. ([4]; 100 μg/ml, 1000 TCID50 (first column pair))?
**A.** 0.72 ± 0.10 O.D.

**Q.** What about the O.D. ([4]; 100 μg/ml, 1000 TCID50 (second column pair)) of the same compound?
**A.** 0.78 ± 0.10 O.D.
